Assay results reported in PubChem BioAssay AID1324 (NMMLSC, 2008).
This is a selection; strong and weak results do not stand in their true shares. Active and inactive are the calls of the source. The rule behind the calls is not given here.

Target: glutathione S-transferase (GST-GSH binding)
Assay: GST–glutathione interaction disruption – biochemical, multiplex beads, flow cytometry, HPSMTB buffer, profiling panel (AID 1324);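 note: glutathione beads loaded with GST-green fluorescent protein and no fluorescent Bim peptide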
Conditions: multiplex bead flow cytometry, MCF, concentration not given here

CCOP1(=S)c2c(C)nn(CCC#N)c2N=C(c2ccc(F)cc2)N1C (stereo unspecified)
percent span inhibition: inactive
